This data set relates to SKOV-3 (human HER2-positive) tumor bearing mice. The settings on record: mouse, in vivo, iv, 144 h.

In the case of “[^111In]In-DO3A-BODIPY-Tz-TCO-trastuzumab”, the “Uptake in SKOV-3 tumor” value came to 21.24 ± 5.56 %ID/g, the Uptake in blood is 4.15 ± 0.92 %ID/g, the Uptake in bone is on record as 1.33 ± 0.31 %ID/g and the Uptake in ovaries was determined as 17.20 ± 11.24 %ID/g. The substance further displayed an Uptake in uterus of 4.94 ± 3.37 %ID/g.

The values are drawn from PMC9170845, “Development of a multi faceted platform containing a tetrazine, fluorophore and chelator: synthesis, characterization, radiolabeling, and immuno-SPECT imaging” (EJNMMI Radiopharmacy and Chemistry, 2022).
